The text below walks through data of patent publication US20020159969A1, “Small peptide-based therapeutics for reversing cancer-associated MUC-1 mucin-induced immunosuppression” (priority 1997, published 2002).

The assay has as its system T cells. Kind of assay: T cell proliferation assay with allo PBLs (3H-thymidine incorporation) with synthetic MUC-1 tandem repeat peptides. It is filed as cell-based, human. The note with it: 50 U/ml IL-2 or 1 μg/ml anti-CD28 Mab. The protocol:
Enriched T cell populations were purified from buffy coats obtained from normal red cross donors using nylon wool columns by previously reported procedures. See, e.g., Agrawal et al., J. Immunol. 157: 2089-95 (1996) and Agrawal et al., J. Immunol. 157: 3229-34 (1996). For the allo MLR, mitomycin C treated allogeneic PBLs were co-cultured with purified T cells in the presence or absence of affinity purified MUC-1 mucin or control OSM. In most of the experiments, the T cells were cultured 6-7 days in AIM V medium in the absence or presence of MUC-1, MUC-1 derivative or OSM at the indicated concentration. After this time, the T cells were harvested, washed and cultured as indicated.
For the experiment depicted in FIG. 2, purified T cells (10^6/ml) were cultured in AIM V medium with allo PBLs in the absence or presence of MUC-1, MUC-1 derivative or OSM 10 μg/ml for 6-7 days. T cells were harvested and plated in 96 well flat bottom plates at 10^5/well with allo PBLs (10^5/well), in the presence or absence of affinity purified MUC-1, MUC-1 derivative or OSM. Control cultures were treated with either 50 U/ml IL-2 or 1 μg/ml anti-CD28 Mab. After 4 days of culture, ^3H-thymidine (1 μCi/well) was added. The cells were harvested on the fifth day and ^3H-thymidine incorporation was measured by liquid scintillation.
(Incorporation of labelled thymidine or its analogues reports DNA synthesis.)

On to “IL-2: cytokine interleukin-2, control treatment at 50 U/ml”, for which the “reversal of the reduction of T cell proliferation caused by MUC-1 tandem repeat peptides” value is reported as “reversed”.
